Our source for the Ki values is patent US8507535B2 (Hoffmann-La Roche Inc., priority 2010, dated 2013).

Protein sequences, listed by entry. Tags and fused reporters are not part of them.
UniProt P29371, whole entry: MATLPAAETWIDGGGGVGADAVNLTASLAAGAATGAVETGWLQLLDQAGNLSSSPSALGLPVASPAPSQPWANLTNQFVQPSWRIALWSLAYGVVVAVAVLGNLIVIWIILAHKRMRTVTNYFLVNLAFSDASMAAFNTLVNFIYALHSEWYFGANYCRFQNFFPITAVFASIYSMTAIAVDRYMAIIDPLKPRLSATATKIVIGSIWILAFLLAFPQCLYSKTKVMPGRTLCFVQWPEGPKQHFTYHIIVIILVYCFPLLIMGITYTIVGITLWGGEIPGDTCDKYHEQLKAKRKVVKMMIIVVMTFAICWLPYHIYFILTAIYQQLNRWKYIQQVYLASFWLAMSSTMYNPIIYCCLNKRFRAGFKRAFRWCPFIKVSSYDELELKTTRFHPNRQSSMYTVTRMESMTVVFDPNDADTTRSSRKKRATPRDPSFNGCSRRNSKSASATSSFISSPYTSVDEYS

What is called Ki is a measure of affinity in units of concentration, obtained from inhibition or displacement.

SMILES strings stand for the structures.

This assay deals with human NK3 receptor (Homo sapiens (Human), UniProt P29371). Kind of assay: [3H]SR142801 competition binding assay. As to conditions: membranes from HEK293 cells transiently expressing recombinant human NK3 receptor; [3H]SR142801 radioligand; read-out: Ki (uM) hNK3. As for the experimental part: [^3H]SR142801 Competition Binding Assay
hNK3 receptor binding experiment were performed using [^3H]SR142801 (Catalog No. TRK1035, specific activity: 74.0 Ci/mmol, Amersham, GE Healthcare UK limited, Buckinghamshire, UK) and membrane isolated from HEK293 cells transiently expressing recombinant human NK3 receptor. After thawing, the membrane homogenates were centrifuged at 48,000×g for 10 min at 4° C., the pellets were resuspended in the 50 mM Tris-HCl, 4 mM MnCl2, 1 μM phosphoramidon, 0.1% BSA binding buffer at pH 7.4 to a final assay concentration of 5 μg protein/well. […] Nonspecific binding was measured in the presence of 10 μM SB222200 for both radioligands. The radioactivity on the filter was counted (5 min) on a Packard Top-count microplate scintillation counter with quenching correction after addition of 45 μl of microscint 40 (Can berra Packard S. A., Zurich, Switzerland) and shaking for 1 h. […] IC50 values were derived from the inhibition curve and the affinity constant (Ki) values were calculated using the Cheng-Prussoff equation Ki=IC50/(1+[L]/KD) where [L] is the concentration of radioligand and KD is its dissociation constant at the receptor, derived from the saturation isotherm. All experiments were performed in duplicate and the mean±standard error (SEM) of the individual Ki values was calculated.

As for `Cc1cc(C(=O)N2C[C@H](c3ccc(Cl)cc3)[C@@](C)(COc3ccc(Cl)cn3)C2)cnn1` (racemic) [Example 1, [(3RS,4RS)-4-(4-Chloro-phenyl)-3-(5-chloro-pyridin-2-yloxymethyl)-3-methyl-pyrrolidin-1-yl]-(6-methyl-pyridazin-4-yl)-methanone], the Ki came to 0.0242 µM.
